Results on one molecule are retold here after ChEMBL document CHEMBL1177813, “Design and synthesis of trivalent ligands targeting opioid, cholecystokinin, and melanocortin receptors for the treatment of pain” (Bioorg Med Chem Lett, 2010).

The chains behind the UniProt entries cited, without tags or fusion partners.
UniProt P32300, whole entry: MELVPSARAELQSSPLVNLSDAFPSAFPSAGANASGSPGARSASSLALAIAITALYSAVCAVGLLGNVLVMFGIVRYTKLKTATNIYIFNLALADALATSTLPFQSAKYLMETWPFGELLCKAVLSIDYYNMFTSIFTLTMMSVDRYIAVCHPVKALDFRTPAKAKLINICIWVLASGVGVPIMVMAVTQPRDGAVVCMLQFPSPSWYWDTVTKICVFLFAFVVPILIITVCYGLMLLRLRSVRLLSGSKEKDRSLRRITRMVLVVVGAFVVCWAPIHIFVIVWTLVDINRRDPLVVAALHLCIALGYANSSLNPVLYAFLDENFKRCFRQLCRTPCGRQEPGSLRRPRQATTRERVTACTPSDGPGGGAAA
UniProt P41143, whole entry: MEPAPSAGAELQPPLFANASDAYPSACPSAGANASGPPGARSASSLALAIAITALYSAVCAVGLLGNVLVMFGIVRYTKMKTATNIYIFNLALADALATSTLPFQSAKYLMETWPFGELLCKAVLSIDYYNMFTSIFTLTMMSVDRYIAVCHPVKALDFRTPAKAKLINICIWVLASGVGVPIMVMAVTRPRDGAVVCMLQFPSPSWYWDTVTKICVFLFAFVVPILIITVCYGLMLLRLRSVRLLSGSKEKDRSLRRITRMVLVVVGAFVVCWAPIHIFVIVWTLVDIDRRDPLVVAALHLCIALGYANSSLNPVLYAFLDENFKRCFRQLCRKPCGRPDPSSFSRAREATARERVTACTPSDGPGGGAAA
UniProt P33535, whole entry: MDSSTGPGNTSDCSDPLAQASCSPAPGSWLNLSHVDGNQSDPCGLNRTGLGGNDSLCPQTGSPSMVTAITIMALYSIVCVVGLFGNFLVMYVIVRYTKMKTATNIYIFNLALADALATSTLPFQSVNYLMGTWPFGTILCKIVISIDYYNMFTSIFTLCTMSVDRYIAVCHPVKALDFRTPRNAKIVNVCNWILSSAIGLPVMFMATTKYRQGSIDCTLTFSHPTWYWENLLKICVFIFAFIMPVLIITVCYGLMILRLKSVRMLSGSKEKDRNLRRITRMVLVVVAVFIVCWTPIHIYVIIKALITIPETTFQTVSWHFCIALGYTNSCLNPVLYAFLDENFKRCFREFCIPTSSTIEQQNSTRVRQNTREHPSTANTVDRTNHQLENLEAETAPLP

For assay [1], the target named is Delta-type opioid receptor (Mus musculus, UniProt P32300). Kind of assay: Agonist activity at delta opioid receptor in mouse vas deferens assessed as inhibition of electrically-stimulated muscle contraction. The assay is classed as functional, tissue-based.
The target in assay [2] is Delta-type opioid receptor (Homo sapiens, UniProt P41143). Kind of assay: Displacement of [3H]DPDPE from human delta opioid receptor expressed in mouse HN9.10 cells. Format: cell-based.
The target of the next assay is Mu-type opioid receptor (Rattus norvegicus, UniProt P33535). Kind of assay: Displacement of [3H]DAMGO from rat mu opioid receptor expressed in mouse HN9.10 cells. Format: cell-based. Background: In a radioligand displacement assay an active substance lowers the binding of a labelled ligand.

Broadly, the IC50 is the concentration at which inhibition is half-maximal. As usually defined, the Ki is a dissociation constant, usually derived from enzyme kinetics or from competition with a known ligand. Lower therefore signals tighter binding. Consider `C[C@@H](NC(=O)[C@@H](N)Cc1ccc(O)cc1)C(=O)NCC(=O)N[C@@H](Cc1ccccc1)C(=O)NCCCC[C@H](NC(=O)[C@H](Cc1c[nH]c2ccccc12)NC(=O)[C@H](CCCN=C(N)N)NC(=O)[C@@H](Cc1ccc(Cl)cc1)NC(=O)[C@@H](N)Cc1cnc[nH]1)C(=O)N[C@@H](CC(=O)O)C(=O)N[C@@H](Cc1ccccc1)C(N)=O`, for which the IC50 is 240 nM in assay [1], 7.94 nM in assay [2] and 31.6 nM on Mu-type opioid receptor. Moreover, the values for the Ki (in assay [2]; at Mu-type opioid receptor) were 3.5 nM and 7.4 nM, respectively.
